Yeast mating assay B: variants of the scFv Ab-14

Target: peptide PDVDLGDISGINAS, taken from heptad repeat 2 (HR2) of SARS-CoV-2 spike.

Parent scFv Ab-14: VH joined to VL by a (GGGGS)3 linker. Changes lie in the heavy chain CDRs alone.
VH: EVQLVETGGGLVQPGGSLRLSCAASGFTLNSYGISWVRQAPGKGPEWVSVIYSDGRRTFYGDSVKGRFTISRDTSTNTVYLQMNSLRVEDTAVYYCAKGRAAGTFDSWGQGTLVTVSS
VL: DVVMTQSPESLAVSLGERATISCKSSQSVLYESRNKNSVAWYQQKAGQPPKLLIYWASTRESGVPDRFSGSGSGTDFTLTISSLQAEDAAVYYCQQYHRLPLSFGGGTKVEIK

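Phage display of a naive human antibody library on the peptide gave the parent. The variants were designed computationally from a first round of random CDR variants and then made and measured. Group labels follow the data file (Ctrl: baseline library sampled from a position-specific scoring matrix, with some repeated check sequences; En: ensemble of fine-tuned language models; GP: Gaussian process model; GPLM: also part of the Gaussian process libraries; HC: hill climbing; Gen: genetic algorithm; Gibbs: Gibbs sampling; a sequence that several methods proposed may carry one label only). The assay is AlphaSeq: two haploid yeast populations carry antibody and antigen on their surface. Mating (16 h, 30 °C) was followed by selection of diploids and sequencing of their barcodes. Each replicate has its own calibration line, from reference interactions of the BCL2 family. The assay was run in six technical replicates.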

Each variant is given by its three heavy chain CDRs, as the data file delimits them; those of the parent are GFTLNSYGIS, VIYSDGRRTFYGDSVK, GRAAGTFDS. Affinities are written as log10 Kd with Kd in nM; a lower number is a better binder. The mean shown is taken over the replicates in which the pair was detected. A pair that was not seen in any replicate is written "not detected"; this usually means weak binding, but a binder can also be missed. In the paper, a design with two or fewer of six values counts as a poor binder.

| CDR-H1 | CDR-H2 | CDR-H3 | group | mean, log10 nM | detected | signal with controls |
|---|---|---|---|---|---|---|
| GFDLNEYGIS | VIYADGRRTFYADSVK | GEVAGTFDI | En_HC | -0.13 | 6/6 | 1/18 |
| GDTLNSYGIS | VIYADGRRTFYGDSVK | GRNAGTFDS | Ctrl | 0.51 | 6/6 | 0/18 |
| GFDLTEYGIS | VIYADGRRTEYDNDVK | GQVAGHFLD | En_Gibbs | not detected | 0/6 | 0/18 |
| GFTINSYGIS | VIYSDGRRTFYGDEVK | GRAAGTVDE | Ctrl | not detected | 0/6 | 0/18 |
| GFDLNEYGIS | VIYADGMRTAYSDSVK | GEQAGTFDV | En_Gen | -0.44 | 6/6 | 0/18 |
| GFNLNEYGIS | VIYADGMRTFYTDSVK | GETAGTFDK | En_HC | -0.51 | 6/6 | 0/18 |
| GFQLNSYGIS | VIYSDGRRTFYADQVK | GNEAGTFDS | GP_Gibbs | 1.08 | 6/6 | 0/18 |
| GFNLNSYGIS | VIYSDGRRTFYGDSVK | GRAAATFDV | GP_Gibbs | 2.17 | 1/6 | 0/18 |
| KFSLNDYGIS | VIYSDGRRTFYGDSVK | GRQAGTFDS | GPLM_Gen | 1.08 | 6/6 | 0/18 |
| GFDLNEYGIS | VIYADGMRTFYDDSVK | GQLAGTFDQ | En_HC | -0.31 | 6/6 | 1/18 |
| GFNLNSYGIS | VIYSDGRRKFYLDAVK | GRAAGTFDS | Ctrl | 0.60 | 1/6 | 0/18 |
| GFWLNEYGIS | VIYSDGRRTFYDDSVK | GRTAGTFDS | GPLM_Gen | 0.46 | 6/6 | 1/18 |
| GFDLNEYGIS | VIYADGVRTAYADSVK | GTNAGTFDQ | En_Gen | 0.04 | 6/6 | 0/18 |
| GFDLDEYGIS | VIYADGMRNAYTADVK | GGKSEDFFM | En_Gibbs | not detected | 0/6 | 0/18 |
| GFDLNEYGIS | VIYADGVRTAYADDVK | GNNAGTFDI | En_Gen | 0.32 | 6/6 | 0/18 |
| GFGLNSYGIS | VIYSDGRRTFYGDSVK | GWTAGTFDS | GPLM_Gibbs | 0.93 | 3/6 | 0/18 |
| GFDLDEYGIS | VIYADGMRTAYVDSVK | GNVAGTFDM | En_Gen | -0.63 | 6/6 | 0/18 |
| GFDLNEYGIS | VIYADGRRTFYIDSVK | GEDAGTFNV | En_HC | -0.15 | 6/6 | 0/18 |
| GFDLDEYGIS | VIYADGKRTAYSDDVK | GNVAGTFDV | En_Gen | -0.52 | 6/6 | 0/18 |
| GFDLNEYGIS | VIYADGRRTFYIDSVK | GETAGTFNV | En_HC | -0.54 | 6/6 | 0/18 |
| GFELNSYGIS | VIYSDGRRTFYADSVK | GKAAGTFDK | GPLM_Gibbs | 0.96 | 6/6 | 1/18 |
| GFNLDEYGIS | VIYADGYRRMYAQDVK | GMNSGFGGT | En_Gibbs | not detected | 0/6 | 0/18 |

Further variants, results first:

| mean, log10 nM | detected | signal with controls | CDR-H1 | CDR-H2 | CDR-H3 | group |
|---|---|---|---|---|---|---|
| 0.55 | 1/6 | 0/18 | GFWLNDYGIS | VIYSDGRRTFYIDSVK | GRTAGTFDS | GPLM_Gibbs |
| not detected | 0/6 | 0/18 | GFTLNSYGIS | VIYSDGQRTFYHDSVE | GYAAGTFKC | Ctrl |
| 0.19 | 2/6 | 0/18 | GFWLNEYGIS | VIYSDGRRTFYGDSVK | GRNAGTFDT | GP_Gen |
| 0.18 | 6/6 | 0/18 | GFDLNEYGIS | VIYADGSRTVYADSVK | GEVAGTFDV | En_Gen |
| 2.20 | 5/6 | 1/18 | GFTLNLYGIS | VIYSDGRRTAYADKVK | GRWAGTFDS | Ctrl |
| not detected | 0/6 | 0/18 | GFPLNSYGIS | VIYSDGRRTFYKDSVK | GKAAGTFDS | Ctrl |
| not detected | 0/6 | 0/18 | GFDLEEYGIS | VIYADGMRTVYAHSVK | GHYGLGKVG | En_Gibbs |
| not detected | 0/6 | 0/18 | GFGLDEFGIS | VIYADGQRTAYANSFK | GVNSNAYDT | En_Gibbs |
| 1.02 | 6/6 | 0/18 | GFTLNSYGIS | VIYFDGRRTFYGDDVK | GDTAGTFDT | Ctrl |
| 0.43 | 6/6 | 0/18 | GFSLNSYGIS | VIYSDGRRTFYGDHVK | GKTAGTFDS | GP_Gen |
| 0.21 | 6/6 | 0/18 | GFDLDEYGIS | VIYADGRRTFYIDSVK | GEVAGTFDS | En_HC |
| 1.25 | 6/6 | 0/18 | GFELNSYGIS | VIYSDGRRTFYGDSVK | GAAAGTFDS | GP_Gen |
| 0.11 | 6/6 | 0/18 | GFELNSYGIS | VIYSDGRRTFYSDQVK | GRTAGTFDS | GP_Gen |
| 1.18 | 3/6 | 0/18 | GFHLNSYGIS | VIYSDGRRTFYGDSVR | GRNAGTFDV | Ctrl |
| not detected | 0/6 | 0/18 | GFTLNDYGIS | VIYSDGRRTFYTDSVK | GRAAGTFLS | Ctrl |
| 1.51 | 2/6 | 0/18 | GFDLNEYGIS | VIYSDGRRTFYGDSVK | GRAAGTFDQ | GP_HC |
| 0.35 | 6/6 | 0/18 | GFSLNEYGIS | VIYSDGRRTFYADSVK | GRAAGTFDS | GPLM_Gen |
| not detected | 0/6 | 1/18 | GFSLDEYGIS | VIYADGARSFYTNKVK | GVTVGDNGT | En_Gibbs |
| not detected | 0/6 | 0/18 | GFDLAEYGIS | VIYADGMRNAYATNFK | GYIGGTIMY | En_Gibbs |
| not detected | 0/6 | 0/18 | GFTLNDYGIS | VIYSDGRRTFYGDSVK | GKTAGTFIS | GP_HC |
| 0.98 | 5/6 | 0/18 | KFSLNSYGIS | VIYSDGRRTFYADSVK | GRLAGTFDT | GP_Gibbs |
| 0.16 | 6/6 | 0/18 | GFTVNSYGIS | VIYADGRRTFYGDSVK | GREAGTYDV | Ctrl |
| not detected | 0/6 | 0/18 | GFSLDEYGIS | VIYADGVRTQYDDSFK | GTGDFDIEL | En_Gibbs |

Extract of 7 entries:

CDR-H1	CDR-H2	CDR-H3	group	mean, log10 nM	detected	signal with controls
GFTLNDYGIS	VIYSDGRRTFYGDSVK	GKTAGTFIS	GP_HC	not detected	0/6	0/18
GFTLNSYGIS	VIYFDGRRTFYGDDVK	GDTAGTFDT	Ctrl	1.02	6/6	0/18
GFDLNEYGIS	VIYADGVRTAYADDVK	GNNAGTFDI	En_Gen	0.32	6/6	0/18
GFWLNEYGIS	VIYSDGRRTFYGDSVK	GRNAGTFDT	GP_Gen	0.19	2/6	0/18
GFNLNEYGIS	VIYADGMRTFYTDSVK	GETAGTFDK	En_HC	-0.51	6/6	0/18
GFDLNEYGIS	VIYADGSRTVYADSVK	GEVAGTFDV	En_Gen	0.18	6/6	0/18
GFDLDEYGIS	VIYADGMRTAYVDSVK	GNVAGTFDM	En_Gen	-0.63	6/6	0/18

A sequence measured in both rounds can read differently, since the two assays cover different ranges. Empty control strains, which show no peptide, gave a signal in 1% of pairings with all heavy chain designs; the median was 2.08 and 95% of these signals were weaker than 0.84. No background was subtracted. For each scFv, signals with the empty controls are counted beside the result. The parent sequence was in this pool as ten entries: three were never detected, three once, and four in most replicates, with averages from 0.34 to 2.37.

Data: MIT Lincoln Laboratory AlphaSeq set, Li et al. 2023, doi:10.1038/s41467-023-39022-2, as distributed in FLAb.